Earlier results on one molecule are cited in patent publication US20220257540A1, “COMPOSITIONS AND METHODS FOR TREATMENT OF HEPATITIS B VIRUS INFECTION” (ANHUI RONGHANG BIOTECH DEVELOPMENT CO., LTD., priority 2019, published 2022).

Where two headings read alike, the source gives them in different places.

For this series the following is noted: cited from earlier work.

As for `COc1cc2c(c(OC)c1OC)-c1ccc(OC)c(=O)cc1[C@@H](NC(C)=O)CC2` [Colchicine, N [5,6,7,9-tetrahydro-1,2,3,10-tetratmethoxy 9-oxobenzo[a]heptalen-7-yl], (S)-acetamide], the outcome of overdose by setting is: (ingested from 0.5 to 0.8 mg/kg) “more severe adverse reactions, including myelosuppression”; (ingested less than 0.5 mg/kg) “survived”.
